## Yeast mating assay 1: variants of the scFv Ab-14

Binding partner: SARS-CoV-2 spike HR2 peptide, sequence PDVDLGDISGINAS.

The variants keep the heavy chain, the linker and the frameworks of Ab-14 (scFv order VH, the linker GGGGSGGGGSGGGGS, VL).
VH: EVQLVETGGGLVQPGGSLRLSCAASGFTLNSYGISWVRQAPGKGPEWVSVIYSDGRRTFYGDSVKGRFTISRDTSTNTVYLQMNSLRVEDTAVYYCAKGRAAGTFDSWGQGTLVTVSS
VL: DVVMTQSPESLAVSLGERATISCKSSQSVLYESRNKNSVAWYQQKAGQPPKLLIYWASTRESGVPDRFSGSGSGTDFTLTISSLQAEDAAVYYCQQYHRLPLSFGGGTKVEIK

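The starting antibody came from a phage panning campaign against this peptide. AAYL50 was designed without a model: most single CDR substitutions and a random sample of double and triple ones. The assay is AlphaSeq: two haploid yeast populations carry antibody and antigen on their surface. The frequency of each diploid, read from paired DNA barcodes, reflects how well the two displayed proteins bind. The ratio of observed to expected reads was calibrated, replicate by replicate, on BCL2-family standards whose Kd was known from biolayer interferometry. Each pool was mated in three replicate cultures.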

Each variant is given by its three light chain CDRs, as the data file delimits them; those of the parent are KSSQSVLYESRNKNSVA, WASTRES, QQYHRLPLS. Every variant below is changed at K36 of the VL (sequential numbering). Values are apparent Kd, the geometric mean of the replicates that gave a signal; lower means stronger binding. A pair that was not seen in any replicate is written "nd"; this usually means weak binding, but a binder can also be missed. For reference, the parent read 4.4 nM as the reference entry and 48 nM as a member of this library.

Variant KSSQSVLYESRNSNSVA | WASTRES | QQYHRLPIS showed 3.7 nM (3 of 3 replicates). For QSSQWVLYESRNLNSVA | WASTRES | QQYHRLPLS, the assay gave 110 nM (3 of 3 replicates). For KSSQSVLYESRNNNSVA | WFSTRHS | QQYHRLPLS, the assay gave nd (0 of 3 replicates). For KSSQSVLIESRNFNSVA | WAHTRES | QQYHRLPLS, the assay gave nd (0 of 3 replicates). For KSSQSVLYESRNSNSVA | CLSTRES | QQYHRLPLS, the assay gave 1.3 µM (3 of 3 replicates).

With GSSQSVLYMSRNVNSVA | WASTRES | QQYHRLPLS the result was nd (0 of 3 replicates). With KSSQSVYYESRNSNPVA | WASTRES | QQYHRLPLS the result was 12 nM (3 of 3 replicates). With KSSQSVLYESRNCNSVA | WARTRES | QQYHRLPLS the result was 110 nM (3 of 3 replicates). For KSSQSVLYESRNYNSVR | WASTRES | QIYHRLPLS, the assay gave nd (0 of 3 replicates). With KSSQSVLYESTNLNSVA | WASTRES | QQYHFLPLS the result was 9.6 nM (3 of 3 replicates).

Variant KSSQSVLYESRNMNSVR | KASTRES | QQYHRLPLS gave nd (0 of 3 replicates). For RSSQSVFYESRNANSVA | WASTRES | QQYHRLPLS, the assay gave 2.3 nM (3 of 3 replicates). Variant KSSQSVLYESRNMNSVA | WASTRES | QQYHRLPLF showed 730 nM (3 of 3 replicates). Variant KSSQSVLYESRNFNSVA | WYSTRES | QQYLRLPLS showed 12 µM (1 of 3 replicates). With KSSQSVLYESRNPNSVA | WAYTRES | QQYHRLPLS the result was 140 nM (3 of 3 replicates).

For KSSQSVLYLSRNDNSVA | WASTEES | QQYHRLPLS, the assay gave 1.4 µM (1 of 3 replicates). Variant KSSQSVLYESRNHNSVI | WASTREY | QQYHRLPLS gave 560 µM (2 of 3 replicates). Variant KSSQSVLYESRNGNSVA | WASTRES | QEYHRLPLS gave 7.4 µM (2 of 3 replicates). Variant KSSQSVLYESRNRNSVA | WASTRES | QQYHRLCLS gave 4.3 nM (3 of 3 replicates). Variant KSSQSVLYESRNFNSVA | WASTRES | QQYHRRPLS showed 120 µM (1 of 3 replicates).

Variant KSSQSVLQESRNANSYA | WASTRES | QQYHRLPLS gave 6.0 µM (3 of 3 replicates). Variant KSSQSVLYESQNPNSVA | WTSTRES | QQYHRLPLS showed 6.4 nM (3 of 3 replicates). Variant KSSQKVLYESRNQNSVA | WASQRES | QQYHRLPLS showed 9.4 nM (3 of 3 replicates). Variant KSSQSVLYESENIPSVA | WASTRES | QQYHRLPLS gave 33 nM (3 of 3 replicates). With KSSQSVLYESRNTNSVA | KASTRES | QQYHRLPLS the result was 1.5 nM (3 of 3 replicates).

For KSSQSVLYESRNGNSVA | WASKWES | QQYHRLPLS, the assay gave 2.7 µM (1 of 3 replicates). Variant KSSDSVLYESRNTNSVA | WASTRES | QQYSRLPLS gave 2.7 nM (3 of 3 replicates). With KSLQSVLYESRNINSVA | WASTRES | QQYHRLTLS the result was 4.5 µM (1 of 3 replicates). For KSPQSVLYESRNNRSVA | WASTRES | QQYHRLPLS, the assay gave 3.2 nM (3 of 3 replicates). For KSSQSVLYERRNSNSMA | WASTRES | QQYHRLPLS, the assay gave 1.3 µM (2 of 3 replicates).

With KSSQSVLYEMRNMNSVA | WASTRES | QQYHRLALS the result was nd (0 of 3 replicates). With KSSQSVLYESRNGNSVA | WAQTRES | QQYARLPLS the result was 9.3 nM (3 of 3 replicates). Variant KSAQSVLYESRNPNSVA | WASTRES | QQYHRLPLS gave 12 nM (3 of 3 replicates).

The first 3 variants above that were never detected:

{"CDR-L1": "KSSQSVLYESRNNNSVA", "CDR-L2": "WFSTRHS", "CDR-L3": "QQYHRLPLS", "Kd": "nd", "replicates with signal": "0 of 3"}
{"CDR-L1": "KSSQSVLIESRNFNSVA", "CDR-L2": "WAHTRES", "CDR-L3": "QQYHRLPLS", "Kd": "nd", "replicates with signal": "0 of 3"}
{"CDR-L1": "GSSQSVLYMSRNVNSVA", "CDR-L2": "WASTRES", "CDR-L3": "QQYHRLPLS", "Kd": "nd", "replicates with signal": "0 of 3"}

Nonspecific signal, from three strains lacking the peptide, appeared in 18% of pairings of library AAYL50, centred on 15 µM (5% of these signals below 970 nM); values are not corrected for it.

The measurements come from Engelhart et al. 2022 (doi:10.1038/s41597-022-01779-4) through the FLAb antibody collection.